Measurements reported in ChEMBL document CHEMBL6083281, “Development of a Fluorescence Probe for High-Throughput Screening of Allosteric Inhibitors Targeting TRAP1” (J Med Chem, 2024).

Molecular target: T1, Heat shock protein 75 kDa, mitochondrial (Homo sapiens) (UniProt Q12931)
T1 sequence (whole entry): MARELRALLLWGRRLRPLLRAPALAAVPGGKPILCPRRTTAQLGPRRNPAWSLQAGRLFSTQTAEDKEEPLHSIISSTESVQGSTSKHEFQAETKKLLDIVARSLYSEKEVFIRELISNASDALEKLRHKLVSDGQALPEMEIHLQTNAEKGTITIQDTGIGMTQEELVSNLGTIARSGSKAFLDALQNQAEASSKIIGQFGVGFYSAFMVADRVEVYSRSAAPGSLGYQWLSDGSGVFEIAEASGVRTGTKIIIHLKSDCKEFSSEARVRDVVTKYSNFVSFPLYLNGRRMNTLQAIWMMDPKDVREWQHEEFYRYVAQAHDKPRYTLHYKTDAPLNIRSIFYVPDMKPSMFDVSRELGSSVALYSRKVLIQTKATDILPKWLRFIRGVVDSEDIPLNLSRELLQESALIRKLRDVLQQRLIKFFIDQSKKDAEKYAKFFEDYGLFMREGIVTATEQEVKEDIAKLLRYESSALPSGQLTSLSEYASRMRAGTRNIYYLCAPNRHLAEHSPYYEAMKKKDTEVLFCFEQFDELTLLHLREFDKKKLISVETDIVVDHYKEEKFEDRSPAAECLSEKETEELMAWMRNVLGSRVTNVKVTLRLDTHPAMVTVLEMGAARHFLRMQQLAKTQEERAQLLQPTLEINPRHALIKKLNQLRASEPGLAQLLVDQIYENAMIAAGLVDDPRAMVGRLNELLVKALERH
Details: dose 100.0 nM, time 2.0 hrs

Structure (SMILES)	Bmax (millipolarization)
CCN(CC)c1ccc2c(-c3ccccc3C(=O)N(C)CCCCCCCC[P+](c3ccccc3)(c3ccccc3)c3ccccc3)c3ccc(=[N+](CC)CC)cc-3oc2c1	326
CCN(CC)c1ccc2c(-c3ccccc3C(=O)N(C)CCCCCC[P+](c3ccccc3)(c3ccccc3)c3ccccc3)c3ccc(=[N+](CC)CC)cc-3oc2c1	101
CN(CCCCCCCC[P+](c1ccccc1)(c1ccccc1)c1ccccc1)C(=O)c1ccccc1C1=c2cc3c4c(c2Oc2c1cc1c5c2CCCN5CCC1)CCC[N+]=4CCC3	203
CN(CCCCCC[P+](c1ccccc1)(c1ccccc1)c1ccccc1)C(=O)c1ccccc1C1=c2cc3c4c(c2Oc2c1cc1c5c2CCCN5CCC1)CCC[N+]=4CCC3	201
